The text below walks through data of publication PMC3822589 (Journal of Cellular and Molecular Medicine, 2013).

In this test the test system is HEL cells. As to the kind of experiment: Cell proliferation assay. Type of test: cell-based, human.

As for `O=C(Nc1c[nH]nc1-c1nc2ccc(CN3CCOCC3)cc2[nH]1)NC1CC1` [AT9283], the “effect on proliferation of HEL cells” value (0.3 or 1 μM, 72 hrs) is “reduced proliferation of HEL cells very effectively”. Moreover, the IC50 (Homo sapiens, HEL, 72 h, read-out: IC50 values, Proliferation assay) turned out to be 29 ± 5 nM.
